The test addresses P-glycoprotein (Pgp, ABCB1) (Cricetulus griseus, UniProt P21448). Description: biochemical.

Protein sequences, listed by entry. Tags and fused reporters are not part of them.
UniProt P21448, whole entry: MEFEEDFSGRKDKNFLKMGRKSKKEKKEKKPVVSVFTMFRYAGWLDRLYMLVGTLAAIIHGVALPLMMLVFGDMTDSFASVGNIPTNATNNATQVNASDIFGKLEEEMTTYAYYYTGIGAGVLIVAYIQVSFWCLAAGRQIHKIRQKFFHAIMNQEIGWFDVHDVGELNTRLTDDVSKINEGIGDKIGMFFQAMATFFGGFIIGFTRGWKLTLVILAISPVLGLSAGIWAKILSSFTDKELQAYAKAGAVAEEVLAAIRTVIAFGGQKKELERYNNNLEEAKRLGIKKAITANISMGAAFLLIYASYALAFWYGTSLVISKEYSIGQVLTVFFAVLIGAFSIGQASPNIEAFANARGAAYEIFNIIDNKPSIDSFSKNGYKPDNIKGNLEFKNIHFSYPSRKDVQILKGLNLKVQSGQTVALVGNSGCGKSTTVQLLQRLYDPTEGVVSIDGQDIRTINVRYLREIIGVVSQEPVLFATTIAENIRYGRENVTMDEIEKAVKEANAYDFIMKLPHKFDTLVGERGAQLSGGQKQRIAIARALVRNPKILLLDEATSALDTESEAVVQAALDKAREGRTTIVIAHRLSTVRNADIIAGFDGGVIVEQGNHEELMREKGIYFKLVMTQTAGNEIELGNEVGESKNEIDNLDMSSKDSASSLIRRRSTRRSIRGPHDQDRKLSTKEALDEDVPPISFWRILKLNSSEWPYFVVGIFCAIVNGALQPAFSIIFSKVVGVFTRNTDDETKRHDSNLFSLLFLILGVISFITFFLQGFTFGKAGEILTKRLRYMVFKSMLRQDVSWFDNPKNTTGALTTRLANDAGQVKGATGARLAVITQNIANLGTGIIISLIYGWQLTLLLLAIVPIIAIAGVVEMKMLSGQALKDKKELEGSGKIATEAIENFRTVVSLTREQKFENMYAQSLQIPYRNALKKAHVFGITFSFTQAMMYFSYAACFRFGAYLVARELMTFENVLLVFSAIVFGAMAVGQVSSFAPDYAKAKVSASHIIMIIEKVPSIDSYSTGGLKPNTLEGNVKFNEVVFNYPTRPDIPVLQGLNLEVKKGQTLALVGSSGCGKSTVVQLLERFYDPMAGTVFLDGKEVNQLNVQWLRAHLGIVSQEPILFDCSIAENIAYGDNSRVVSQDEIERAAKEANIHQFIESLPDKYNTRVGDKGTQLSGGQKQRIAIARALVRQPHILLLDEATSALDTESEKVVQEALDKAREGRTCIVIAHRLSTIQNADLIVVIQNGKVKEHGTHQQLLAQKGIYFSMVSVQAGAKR

As for `COc1cc2c(c(OC)c1OC)-c1ccc(OC)c(=O)cc1[C@@H](NC(C)=O)CC2` [colchicine], 94.6 ± 47.6 µM corresponded to half-maximal inhibition (IC50).
